The values below are quoted from earlier work in patent USRE32935E, “Non-toxic organotin stabilizers for vinyl chloride polymers” (M&T Chemicals, Inc., priority 1985, dated 1989).

The subject of the data set is rats. The note with it: force-feeding, table of Neumann; cited from earlier work.

As to tri-n-octyltin laurate, the “LD50 (lethal dose for 1/2 the population)” value was “greater than 6,000 mg per kilogram of body weight”.
